Measurements as given in patent publication US6753348B2, “BTK inhibitors and methods for their identification and use” (Parker Hughes Institute, priority 1998, dated 2004).

By UniProt entry, the sequences of proteins in these tests, tags left out. Where a name states a change or a piece, a line headed by the entry shows the natural chain unless it says otherwise.
UniProt P35991: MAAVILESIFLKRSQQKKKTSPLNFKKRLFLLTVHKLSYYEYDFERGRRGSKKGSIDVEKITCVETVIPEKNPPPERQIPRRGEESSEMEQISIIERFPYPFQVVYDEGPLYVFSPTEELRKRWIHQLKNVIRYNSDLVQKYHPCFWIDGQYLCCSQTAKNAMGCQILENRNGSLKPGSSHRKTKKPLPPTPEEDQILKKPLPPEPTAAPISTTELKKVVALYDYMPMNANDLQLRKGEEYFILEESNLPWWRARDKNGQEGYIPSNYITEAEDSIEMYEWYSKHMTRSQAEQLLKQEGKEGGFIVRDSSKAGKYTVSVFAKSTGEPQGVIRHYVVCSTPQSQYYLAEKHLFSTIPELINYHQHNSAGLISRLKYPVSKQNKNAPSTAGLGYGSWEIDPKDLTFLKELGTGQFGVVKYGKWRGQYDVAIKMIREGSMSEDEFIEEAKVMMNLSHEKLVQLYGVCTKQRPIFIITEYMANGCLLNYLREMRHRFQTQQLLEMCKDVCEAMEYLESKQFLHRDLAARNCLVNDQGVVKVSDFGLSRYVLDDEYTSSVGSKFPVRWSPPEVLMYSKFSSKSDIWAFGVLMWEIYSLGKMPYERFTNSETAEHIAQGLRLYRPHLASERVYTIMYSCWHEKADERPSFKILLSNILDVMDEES

Molecular target: recombinant BTK expressed in a baculovirus vector expression system (Mus musculus, UniProt P35991)
Assay: biochemical

In the case of `C/C(O)=C(\C#N)C(=O)Nc1cc(Br)ccc1Br` [LFM-A13, α-Cyano-β-hydroxy-β-methyl-N-(2,5-dibromophenyl)-propenamide], the IC50 is reported as 2500 nM and ~2500 nM.

“And” between values parts separate entries of the source, which are not always exact repeats. Equal entries are not always repeated.
